Earlier results in patent publication US9492404B2, “Compositions and methods for treatment of taupathy” (Revalesio Corporation, priority 2010, dated 2016).

System: MS
Conditions: in vivo

B1: interferon-β: naturally occurring protein produced by fibroblasts, drug for MS (protein, UniProt P01574 22-187, looked up)
Interferon beta: MSYNLLGFLQRSSNFQCQKLLWQLNGRLEYCLKDRMNFDIPEEIKQLQQFQKEDAALTIYEMLQNIFAIFRQDSSSTGWNETIVENLLANVYHQINHLKTVLEEKLEKEDFTRGKLMSSLHLKRYYGRILHYLKAKEYSHCAWTIVRVEILRNFYFINRLTGYLRN
effectiveness in reducing the rate of MS episodes: 18-38%
